Measurements from ChEMBL document CHEMBL2062373, “Discovery of pyrroloaminopyrazoles as novel PAK inhibitors” (J Med Chem, 2012).

Sequences of proteins named here, by UniProt entry; tags and fusion partners are left off. A change or cut given only in a name is not applied to a line headed by its entry.
UniProt O96013: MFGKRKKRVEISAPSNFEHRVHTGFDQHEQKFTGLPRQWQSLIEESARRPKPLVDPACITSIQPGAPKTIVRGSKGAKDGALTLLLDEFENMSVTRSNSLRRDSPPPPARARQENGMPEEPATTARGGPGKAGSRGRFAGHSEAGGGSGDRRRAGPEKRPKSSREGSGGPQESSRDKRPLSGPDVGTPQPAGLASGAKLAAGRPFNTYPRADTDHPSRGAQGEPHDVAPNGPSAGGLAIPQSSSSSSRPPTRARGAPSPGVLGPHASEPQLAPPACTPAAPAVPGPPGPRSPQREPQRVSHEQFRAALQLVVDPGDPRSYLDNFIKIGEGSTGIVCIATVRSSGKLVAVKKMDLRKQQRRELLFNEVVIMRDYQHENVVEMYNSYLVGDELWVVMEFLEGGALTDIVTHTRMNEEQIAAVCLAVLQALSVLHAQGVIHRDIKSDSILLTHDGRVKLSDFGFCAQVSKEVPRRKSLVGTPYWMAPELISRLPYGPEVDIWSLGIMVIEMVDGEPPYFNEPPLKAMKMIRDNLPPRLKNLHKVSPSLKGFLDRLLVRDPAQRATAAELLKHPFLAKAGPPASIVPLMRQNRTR

Molecular target: Serine/threonine-protein kinase PAK 4 (Homo sapiens, UniProt O96013)
Test: Inhibition of PAK4

- pKi: 7.19
Compound: CN1CCN(C(=O)N2Cc3c(NC(=O)c4cccc(Oc5ccccc5)c4)n[nH]c3C2(C)C)[C@@H](Cc2ccccc2)C1

pKi: −log10 of the molar value.
